Measured affinities in a library of Ab-14 light chain variants

Binding partner: SARS-CoV-2 spike HR2 peptide, sequence PDVDLGDISGINAS.

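The starting antibody came from a phage panning campaign against this peptide. This is the validation round: designs drawn from the data on random variants, tested in the same kind of assay. Their group label is 14L_GP_Gen (GP: Gaussian process model; Gen: genetic algorithm; a sequence that several methods proposed may carry one label only). AlphaSeq pools MATa yeast showing the antibodies with MATalpha yeast showing the peptide. After mating in shaken culture at 30 °C for 16 h, diploids were selected and their barcode pairs sequenced. Each replicate has its own calibration line, from reference interactions of the BCL2 family. Each pool was mated in six replicate cultures.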

Parent scFv Ab-14: VH joined to VL by a (GGGGS)3 linker. Changes lie in the light chain CDRs alone.
VH: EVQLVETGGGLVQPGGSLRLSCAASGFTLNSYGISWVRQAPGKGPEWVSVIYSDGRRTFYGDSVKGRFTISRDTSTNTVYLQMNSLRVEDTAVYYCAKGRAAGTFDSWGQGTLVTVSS
VL: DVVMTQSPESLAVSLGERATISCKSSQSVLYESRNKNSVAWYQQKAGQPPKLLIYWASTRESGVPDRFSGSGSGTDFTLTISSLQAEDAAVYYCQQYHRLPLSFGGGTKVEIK

Positions count from residue 1 of the parent VL; S25L puts L in place of S. The read-out is the apparent dissociation constant on a log10 scale (nM): the lower, the stronger. "nd" marks a missing value. The strain was present, yet no cells mated with the target were sequenced in that replicate, which points to weak or no binding. In the paper, a design with two or fewer of six values counts as a poor binder. Empty control strains, which show no peptide, gave a signal in 4% of pairings with all light chain designs; the median was 2.64 and 95% of these signals were weaker than 1.59. No background was subtracted. For each scFv, signals with the empty controls are counted beside the result, with their mean in brackets. The parent sequence was in this pool as ten entries: three were never detected, three once, and four in most replicates, with averages from 0.34 to 2.37. A sequence measured in both rounds can read differently, since the two assays cover different ranges.

changes | log10 Kd (nM) by replicate | signal with controls
S25L/N37W/W56D | 0.06 / -0.09 / -0.29 / -0.23 / -0.01 / -0.07 | 1 of 18 (3.97)
S25L/N35M/W56E/E61L | 0.15 / 0.14 / 0.05 / 0.27 / 0.36 / -0.12 | 1 of 18 (2.78)
S25L/R34G/W56N | -0.22 / -0.09 / -0.50 / -0.54 / -0.26 / -0.37 | 0 of 18
S25L/V29M/W56N/S103M | 0.23 / -0.12 / -0.17 / 0.00 / -0.03 / -0.06 | 0 of 18
S25L/S26Q/V29H/W56E | 0.00 / -0.44 / -0.44 / -0.74 / -0.69 / 0.08 | 0 of 18
S25V/V29E/W56N/T59Q/Q96D | 0.18 / 0.11 / -0.15 / 0.01 / -0.05 / 0.80 | 0 of 18
S25L/V29K/S38N/W56G | 0.41 / 0.32 / 0.43 / 0.08 / 0.74 / 0.33 | 1 of 18 (2.92)
S25L/W56G/S103W | 0.09 / -0.08 / -0.42 / -0.62 / -0.27 / -0.09 | 1 of 18 (2.78)
S25L/S26Q/V29W/W56E | 0.29 / 0.03 / 0.12 / -0.15 / -0.03 / 0.22 | 0 of 18
S25F/V29E/W56N/T59Q | -0.17 / -0.16 / -0.09 / -0.44 / -0.56 / -0.33 | 1 of 18 (2.36)
S25F/V29D/W56N/T59Y | 1.80 / 1.40 / 1.19 / 1.98 / 2.10 / 2.63 | 0 of 18
S25L/W56N/E61C/S62D | 0.02 / -0.24 / -0.01 / -0.31 / -0.25 / -0.28 | 1 of 18 (1.39)
S25L/V29W/N37W/W56N/T59Q | -0.03 / -0.07 / 0.00 / -0.13 / 0.05 / 0.08 | 0 of 18
S25L/Y31M/W56E/E61S | -0.02 / -0.07 / 0.00 / -0.32 / -0.16 / -0.13 | 0 of 18
S25L/V29F/W56N/T59Q/S62Q | 0.03 / -0.22 / -0.08 / -0.07 / -0.29 / -0.04 | 1 of 18 (3.15)
S25V/Q27E/W56D | 0.09 / 0.09 / 0.10 / -0.30 / -0.31 / 0.17 | 0 of 18
S25L/S26Q/V29T/W56N/E61C | -0.33 / -0.35 / -0.50 / -0.46 / -0.46 / -0.36 | 2 of 18 (3.07)
S25L/V29E/W56S/E61M | 0.49 / 0.36 / 0.30 / 0.13 / 0.08 / 0.22 | 5 of 18 (2.98)
S25L/E32G/W56H | 0.44 / 0.42 / 0.27 / 0.16 / 0.42 / 0.37 | 2 of 18 (2.25)
S25L/S26P/V29H/W56N/E61M | 0.32 / 0.47 / 0.16 / 0.42 / 0.42 / 0.34 | 0 of 18
S25L/W56E/S103M | 0.32 / -0.04 / -0.49 / -0.28 / -0.24 / 0.06 | 1 of 18 (2.66)
S25L/S26P/V29Q/N35M/W56N | -0.02 / -0.21 / -0.24 / -0.20 / -0.35 / -0.20 | 1 of 18 (1.83)
S25V/N35V/W56N | 0.05 / -0.16 / -0.14 / 0.08 / -0.18 / -0.02 | 4 of 18 (2.56)
S25L/W56N/T59L/E61M | 0.39 / 0.12 / 0.22 / 0.29 / 0.45 / 0.60 | 0 of 18
S25L/S26P/L30D/W56E | 1.02 / 0.59 / 0.12 / 0.11 / 0.39 / 0.91 | 1 of 18 (2.66)
S25L/Q27M/W56E/S62Q | -0.05 / 0.01 / -0.13 / -0.27 / 0.06 / 0.10 | 0 of 18
S25L/V29E/N35Q/W56N/E61M | 0.79 / 0.58 / 0.57 / 0.51 / 0.21 / 0.73 | 2 of 18 (2.44)
S25L/S26P/V29E/W56E/E61M | -0.27 / -0.07 / -0.22 / -0.33 / -0.06 / 0.08 | 0 of 18
S25L/W56G/E61L | -0.25 / -0.07 / -0.33 / -0.32 / -0.31 / -0.12 | 0 of 18
S25L/S26E/V29W/S38A/W56N | -0.24 / -0.18 / -0.26 / -0.46 / -0.39 / 0.24 | 0 of 18
K24V/S25L/W56E | -0.02 / -0.08 / -0.55 / -0.84 / -0.29 / -0.14 | 1 of 18 (1.80)
S25L/L30P/W56N/T59Q | nd / 3.25 / nd / nd / nd / 3.07 | 0 of 18
S25L/V29W/S38N/W56S | -0.29 / -0.48 / -0.42 / -0.33 / -0.43 / -0.26 | 2 of 18 (4.11)
S25L/S26P/V29T/W56G | 0.26 / 0.09 / 0.06 / -0.04 / -0.15 / 0.09 | 2 of 18 (3.44)
S25L/S26P/V29H/W56N/E61C | -0.11 / -0.25 / -0.13 / 0.00 / 0.00 / 0.10 | 0 of 18
S25I/W56D | -0.02 / -0.10 / -0.16 / -0.20 / -0.09 / 0.00 | 3 of 18 (3.94)
S25L/S33D/W56S/T59Q | -0.26 / -0.64 / -0.38 / -0.60 / -0.48 / -0.50 | 2 of 18 (1.98)
S25L/V29Y/W56N/E61C | 0.17 / 0.05 / 0.10 / 0.02 / 0.10 / 0.19 | 6 of 18 (3.56)
S25L/S26Q/N35M/W56N/E61C | 0.01 / -0.21 / -0.27 / -0.29 / -0.19 / -0.05 | 2 of 18 (2.76)

Source: Li et al. 2023 (doi:10.1038/s41467-023-39022-2), MIT Lincoln Laboratory and A-Alpha Bio; data file from the FLAb repository.